Measured values published in PMC2873203 (Journal of labelled compounds & radiopharmaceuticals, 2010).

Sequences of proteins named here, by UniProt entry; tags and fusion partners are left off. Residues count along the entry.
UniProt Q9WTR4, 1-597: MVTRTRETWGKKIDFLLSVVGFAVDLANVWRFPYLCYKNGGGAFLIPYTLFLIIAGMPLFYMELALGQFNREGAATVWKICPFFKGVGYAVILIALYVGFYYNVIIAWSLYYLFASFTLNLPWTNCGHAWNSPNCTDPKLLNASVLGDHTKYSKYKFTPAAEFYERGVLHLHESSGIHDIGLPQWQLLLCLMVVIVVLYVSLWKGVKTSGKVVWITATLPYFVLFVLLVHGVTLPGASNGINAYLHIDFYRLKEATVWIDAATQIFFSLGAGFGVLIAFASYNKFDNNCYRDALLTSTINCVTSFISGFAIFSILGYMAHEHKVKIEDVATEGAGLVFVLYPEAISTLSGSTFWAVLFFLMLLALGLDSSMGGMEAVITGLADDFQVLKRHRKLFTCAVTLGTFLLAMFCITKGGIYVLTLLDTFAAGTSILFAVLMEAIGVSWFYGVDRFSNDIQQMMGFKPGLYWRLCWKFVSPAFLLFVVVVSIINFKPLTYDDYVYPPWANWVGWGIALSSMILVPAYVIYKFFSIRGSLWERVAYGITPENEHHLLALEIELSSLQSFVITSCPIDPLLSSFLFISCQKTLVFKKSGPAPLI

Biological target: norepinephrine transporter (NET) (Rattus norvegicus, UniProt Q9WTR4)
Assay: 3H-nisoxetine radioligand competition in rat brain membrane homogenates
Format: binding

Ki: 8.02 nM
Compound: CNCCC(Oc1ccccc1OC)c1ccccc1 (stereo not shown) [compound 1, nisoxetine]
